Reference: PMC4620744 (Molecular cell, 2015)

Biological target: yeast H3-H4 (yeast)
Test: native gel or EMSA

B1: full-length FACT (Spt16-Pob3 heterodimer) (complex, S. cerevisiae)
chain 1: MEELNIDFDVFKKRIELLYSKYNEFEGSPNSLLFVLGSSNAENPYQKTTILHNWLLSYEFPATLIALVPGKVIIITSSAKAKHLQKAIDLFKDPESKITLELWQRNNKEPELNKKLFDDVIALINSAGKTVGIPEKDSYQGKFMTEWNPVWEAAVKENEFNVIDISLGLSKVWEVKDVNEQAFLSVSSKGSDKFMDLLSNEMVRAVDEELKITNAKLSDKIENKIDDVKFLKQLSPDLSALCPPNYKFNFDLLDWTYSPIIQSGKKFDLRVSARSTNDQLYGNGCILASCGIRYNNYCSNITRTFLIDPSEEMANNYDFLLTLQKEIVTNILKPGRTPKEVYESVIEYIEKTKPELVPNFTKNIGSLIGLEFRDSNFILNVKNDYRKIQRGDCFNISFGFNNLKDSQSANNYALQLADTVQIPLDETEPPRFLTNYTKAKSQISFYFNNEEEDNNKKKSSPATKVPSKPDRNSKILRTKLRGEARGGAEDAQKEQIRKENQKKLHEKLEKNGLLRFSAADANGPDSEPRQYFKKYESYVRDSQLPTNIRDLRIHVDWKSQTIILPIYGRPVPFHINSYKNGSKNEEGEYTYLRLNFNSPGSSGGISKKVEELPYEESADNQFVRSITLRSKDGDRMSETFKQIADLKKEATKREQERKALADVVQQDKLIENKTGRTKRLDQIFVRPNPDTKRVPSTVFIHENGIRFQSPLRTDSRIDILFSNIKNLIFQSCKGELIVVIHIHLKNPILMGKKKIQDVQFYREASDMSVDETGGGRRGQSRFRRYGDEDELEQEQEERRKRAALDKEFKYFADAIAEASNGLLTVENTFRDLGFQGVPNRSAVFCMPTTDCLVQLIEPPFLVINLEEVEICILERVQFGLKNFDMVFVYKDFNKPVTHINTVPIESLDFLKQWLTDMDIPYTVSTINLNWATIMKSLQDDPYQFFLDGGWNFLATGSDDEASDESEEEVSEYEASEDDVSDESAFSEDEEGSEVDDDISGDESEDYTGDESEEGEDWDELEKKAARADRGANFRD
chain 2: MSTDFDRIYLNQSKFSGRFRIADSGLGWKISTSGGSAANQARKPFLLPATELSTVQWSRGCRGYDLKINTKNQGVIQLDGFSQDDYNLIKNDFHRRFNIQVEQREHSLRGWNWGKTDLARNEMVFALNGKPTFEIPYARINNTNLTSKNEVGIEFNIQDEEYQPAGDELVEMRFYIPGVIQTNVDENMTKKEESSNEVVPKKEDGAEGEDVQMAVEEKSMAEAFYEELKEKADIGEVAGDAIVSFQDVFFTTPRGRYDIDIYKNSIRLRGKTYEYKLQHRQIQRIVSLPKADDIHHLLVLAIEPPLRQGQTTYPFLVLQFQKDEETEVQLNLEDEDYEENYKDKLKKQYDAKTHIVLSHVLKGLTDRRVIVPGEYKSKYDQCAVSCSFKANEGYLYPLDNAFFFLTKPTLYIPFSDVSMVNISRAGQTSTSSRTFDLEVVLRSNRGSTTFANISKEEQQLLEQFLKSKNLRVKNEDREVQERLQTALGSDSDEEDINMGSAGEDDESVDEDFQVSSDNDADEVAEEFDSDAALSDAEGGSDEERPSKKPKVE
Question: Does B1 bind?
Answer: binds
